# Measured affinities in a library of Ab-14 light chain variants

Data: MIT Lincoln Laboratory AlphaSeq set, Li et al. 2023, doi:10.1038/s41467-023-39022-2, as distributed in FLAb.

Binding partner: SARS-CoV-2 spike HR2 peptide, sequence PDVDLGDISGINAS.

Parent: Ab-14, a human scFv built as VH, the linker GGGGSGGGGSGGGGS, VL. Only the CDRs of the light chain vary.
VH: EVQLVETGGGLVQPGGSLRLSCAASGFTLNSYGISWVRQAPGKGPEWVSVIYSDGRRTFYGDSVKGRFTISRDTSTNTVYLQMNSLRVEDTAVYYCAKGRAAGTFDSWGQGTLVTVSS
VL: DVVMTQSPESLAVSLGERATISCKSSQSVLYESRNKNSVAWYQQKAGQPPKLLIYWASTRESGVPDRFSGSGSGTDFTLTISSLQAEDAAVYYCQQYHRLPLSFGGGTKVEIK

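The starting antibody came from a phage panning campaign against this peptide. These sequences belong to a second round, designed from the earlier measurements on random variants of the parent. Group labels follow the data file (En: ensemble of fine-tuned language models; GP: Gaussian process model; HC: hill climbing; Gen: genetic algorithm; Gibbs: Gibbs sampling; a sequence that several methods proposed may carry one label only). Affinity was read by AlphaSeq, a pooled yeast mating assay with surface-displayed partners. Pairs that bind mate more often; barcode pairs of the diploids are counted by sequencing. Read counts were normalised to the haploid input and turned into Kd by a linear fit to BCL2-family pairs of known affinity, for each replicate. The assay was run in six technical replicates.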

The parent's light chain CDRs are KSSQSVLYESRNKNSVA, WASTRES, QQYHRLPLS; each variant's own CDRs replace them letter for letter.
This list holds designs with more than six substitutions.
Kd is apparent (estimated from mating counts) and averaged on the log scale over replicates with a signal. Smaller is tighter.
Where no diploid with the target was found in any replicate, the entry reads "nd": below detection, most likely a poor binder, though not proof of it.
As a blank, each scFv also met three strains without target: over all light chain designs, 4% of these pairings were detected, typically at 430 nM and seldom below 38 nM.

Variant HMKDEPGFGPQTYSSIA | HAEIREP | QQYYRLPLM [En_Gibbs] gave 2.4 nM (6 of 6 replicates). With IISQVDAYLTRNKNSIA | DQSTRGS | QQYDRLPLS [En_HC] the result was 2.5 nM (6 of 6 replicates). With MISDLTMYGSRIKNSVA | DLSTRGS | QQYHRLPLS [En_HC] the result was 3.3 nM (6 of 6 replicates). Variant QVQAFNEHEKDQTQAMA | EASMRDA | QQYERLPLS [En_Gibbs] showed 10 nM (6 of 6 replicates). For KLMWSMQYWSRNKNSVA | GASTRES | QQYHRLPLS [GP_Gibbs], the assay gave 3.4 nM (6 of 6 replicates).

With QMGYALFHEDAKKKSIA | ENDVKVY | QQYAKLPLT [En_Gibbs] the result was 12 nM (6 of 6 replicates). Variant KQSQSFLYESRNSNSVA | DASQRED | QDYHRLPLS [GP_Gibbs] gave 1.8 nM (6 of 6 replicates). Variant IVSQLMLWGLHAKNSIA | EAELRLN | QQYDRLPLF [En_Gen] showed nd (0 of 6 replicates). Variant HIGGVLMGENVKARSVA | HMNTRED | QQYDRLPLS [En_Gen] gave 4.2 nM (6 of 6 replicates). Variant KLVQSNLYESRNTNSVA | NASQRCS | QQYHRLPLS [GP_Gibbs] showed 1.2 nM (6 of 6 replicates).

Variant KVQQLEPYESRNKNSVA | NASTREE | QQYHRLPLS [GP_Gibbs] gave 1.9 nM (6 of 6 replicates). Variant KLSQQGHYGSRNANSVA | NASTREQ | QQYHRLPLS [GP_Gibbs] gave 1.1 nM (6 of 6 replicates). Variant ILYESVGTLSRNKNSVA | DNSTREE | QQYDRLPLS [En_HC] gave 35 nM (3 of 6 replicates). Variant HFDQTRQEDIQDKNSVA | EGSVVIS | QQYSKLPLS [En_Gibbs] showed 21 nM (6 of 6 replicates). For KIGHGLTTESRNKNSVA | QTETRVP | QHYHRLPLS [En_HC], the assay gave 120 nM (6 of 6 replicates).

For TISQSWLIEQRNKNNVA | EMSTREN | QDYDRLPLS [En_HC], the assay gave 790 pM (6 of 6 replicates). For KLWLAMDMFQGEANAVA | DQQLTRD | QQYARLPLS [En_Gibbs], the assay gave 130 nM (4 of 6 replicates). For KLMQGWLMESRNKNSVA | NASMRLE | QQYHRLPLS [GP_Gibbs], the assay gave 1.1 nM (6 of 6 replicates). Variant KLSQSVMFMSGVYNSVA | QMSTRAE | QCYNRLPLS [En_HC] showed 20 nM (6 of 6 replicates). With KVVQSHDYESRNKQSVA | DASTRCS | QQYHRLPLS [GP_Gibbs] the result was 1.1 nM (6 of 6 replicates).

Variant HMSALTLQGMRHKNSVA | QMTTREN | QQYDHLPLS [En_Gen] gave 2.5 nM (6 of 6 replicates). Variant MISQLYNMGQFAINSVA | QASIRNE | QQYDRLPLA [En_Gen] showed 27 nM (6 of 6 replicates). Variant SLDSYVGYDTHNKKNIA | EETRVDR | QQYAHLPLM [En_Gibbs] showed 5.8 nM (6 of 6 replicates). Variant KLDQWVEMESRNKNSVA | SASQRFS | QQYHRLPLS [GP_Gibbs] gave 2.1 nM (6 of 6 replicates). Variant SLHMMNMVGYANNANVA | NASQLFS | QHYFRLPLQ [En_Gibbs] showed 2.8 nM (6 of 6 replicates).

Variant SMQVYTENFMERGQNIA | DVSATTA | QQYHRLPLA [En_Gibbs] showed 4.2 nM (6 of 6 replicates). Variant KISQMQRVGSTHGNSIA | EEATRAN | QQYHRLPLS [En_Gen] showed 2.0 nM (6 of 6 replicates). With RITQQMAGFERHAANIA | STAVRLW | QQYARLPFI [En_Gibbs] the result was 3.5 nM (6 of 6 replicates). For KLYQSQLYESRNVNAVA | NASQRMS | QQYHRLPLS [GP_Gibbs], the assay gave 900 pM (6 of 6 replicates). Variant MVYQATMMGTSTRNSIA | NATMRPD | QQYHRLPLI [En_Gen] showed 5.7 nM (6 of 6 replicates).

Variant KISGQYRFESLSKNSIA | EAQTRLK | QQYHRLPLS [En_HC] gave 1.8 nM (6 of 6 replicates). Variant KLSISYLFESLEKNSIA | ENSTRES | QHYHRLPLS [En_HC] showed 120 nM (2 of 6 replicates). For HLAAMWGLESVKPNNVA | ENSTREQ | QQYDRLPLS [En_Gen], the assay gave 210 nM (5 of 6 replicates). With KFSNMSNSMSVSKSAVA | EMSTRPE | QQYNRLPLA [En_Gen] the result was 11 nM (6 of 6 replicates). For RLSSELMAGEISYNAIA | NTKVLEY | QQYMRLPLG [En_Gibbs], the assay gave 5.6 nM (6 of 6 replicates).

Variant MLTMFANENAGKSSNIA | DTNNLNT | QQYQRLPFM [En_Gibbs] gave 2.3 nM (6 of 6 replicates). Variant KISQMVRVGSTVSNSIA | EEVTRAK | QQYHRLPLF [En_Gen] showed 27 nM (6 of 6 replicates). Variant TISQSVNMMSHGRNSVA | QAEMRES | QQYDRLPLS [En_HC] showed 5.2 nM (6 of 6 replicates). For KLPFSCLYESRNKNSVA | MASQRCS | QQYHRLPLS [GP_Gibbs], the assay gave 17 nM (6 of 6 replicates). With KLVQFMNRGTHHTSNIA | DAQQRLD | QQYARLPLA [En_Gen] the result was 1.0 nM (6 of 6 replicates).

With SLIPFDNQIMKGTNNIA | HTSVRAS | QQYMRLPFV [En_Gibbs] the result was 1.5 nM (6 of 6 replicates).

The last 2 entries again:

| CDR-L1 | CDR-L2 | CDR-L3 | group | Kd | detected |
|---|---|---|---|---|---|
| KLVQFMNRGTHHTSNIA | DAQQRLD | QQYARLPLA | En_Gen | 1.0 nM | 6/6 |
| SLIPFDNQIMKGTNNIA | HTSVRAS | QQYMRLPFV | En_Gibbs | 1.5 nM | 6/6 |

Values of this round are not directly comparable with the first-round values of the same sequences.
The parent sequence was in this pool as ten entries: three were never detected, three once, and four in most replicates, with averages from 2.2 nM to 240 nM.
In the paper, a design with two or fewer of six values counts as a poor binder.